Assay results published in BindingDB's records for 1335078.

Sequences of proteins named here, by UniProt entry; tags and fusion partners are left off.
UniProt P41143, whole entry: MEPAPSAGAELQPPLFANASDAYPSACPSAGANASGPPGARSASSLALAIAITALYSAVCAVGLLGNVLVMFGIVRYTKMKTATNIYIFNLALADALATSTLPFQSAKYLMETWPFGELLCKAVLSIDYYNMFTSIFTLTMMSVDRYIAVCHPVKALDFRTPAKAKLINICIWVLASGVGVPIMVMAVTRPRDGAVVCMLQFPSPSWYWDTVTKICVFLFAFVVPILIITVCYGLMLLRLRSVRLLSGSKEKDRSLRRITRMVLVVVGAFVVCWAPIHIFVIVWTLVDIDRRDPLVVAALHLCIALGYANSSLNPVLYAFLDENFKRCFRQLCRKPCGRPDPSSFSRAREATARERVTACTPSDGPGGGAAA

Molecular target: Delta-type opioid receptor (Homo sapiens, UniProt P41143)
Experiment: ChEBML_146877

C=C(COc1ccc2c3c1O[C@H]1[C@@]4(OC)CC[C@@]5(C[C@@H]4C(C)(C)O)[C@@H](C2)N(CC2CC2)CC[C@]315)C(=O)OC
IC50: 1.3 nM
